Key:
Assay type in all cases: binding
ELIC-α1GABAAR = ELIC-α1GABAAR (Homo sapiens, UniProt P14867)
Protocol: One hundred microlitres of ELIC-α1GABAAR (0.3 μM) was transferred into a 50-μl window quartz cuvette maintained at 4°C, and NaI was added to the protein sample to a final concentration of 100 mM and incubated for 10 min. MQ290 was then added at a concentration of 3 μM for 3α-OH NS inhibition curves or 1 μM for 3β-OH NS inhibition curves and incubated for 30 min. One-microlitre aliquots of 3α-OH and 3β-OH NS from their corresponding stock solutions (prepared in Buffer A + 0.015% DDM) were added to achieve concentrations between 0.01 and 30 μM. The background emission spectra of ligands alone were obtained for each ligand concentration in the absence of protein and were subtracted from the protein-ligand emission spectra to yield background subtracted data. The MQ290 FRET spectra for different ligand concentrations were estimated using the method described above. The 370-nm intensities of the FRET spectra were plotted against ligand concentration and fitted to a four-parameter logistic curve to obtain IC50 data (GraphPad Software version 9.4.0, San Diego, CA). Ki values were calculated using the relationship: Ki=IC50/1+LT/Kd
where LT is the concentration of MQ290 and Kd was determined from the MQ290 binding curve.

Protein sequences, listed by entry. Tags and fused reporters are not part of them. Chains listed by the source or under a name are the forms on record and can include a tag or linker.
UniProt P14867, other isoform, or with tags, fused parts or gaps: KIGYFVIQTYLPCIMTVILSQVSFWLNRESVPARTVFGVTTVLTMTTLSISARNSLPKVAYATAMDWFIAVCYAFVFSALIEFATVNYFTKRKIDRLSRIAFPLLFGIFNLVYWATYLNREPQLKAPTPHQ
UniProt P14867, other isoform, or with tags, fused parts or gaps Q269L: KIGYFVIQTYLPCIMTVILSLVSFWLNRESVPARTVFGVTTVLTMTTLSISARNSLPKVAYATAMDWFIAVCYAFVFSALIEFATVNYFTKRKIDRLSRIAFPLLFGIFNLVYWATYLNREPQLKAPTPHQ
UniProt P14867, other isoform, or with tags, fused parts or gaps W273L: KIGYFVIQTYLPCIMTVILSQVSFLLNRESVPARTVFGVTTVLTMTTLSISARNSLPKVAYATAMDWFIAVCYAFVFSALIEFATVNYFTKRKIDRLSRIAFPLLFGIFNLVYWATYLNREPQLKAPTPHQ

ELIC-α1^Q242LGABAAR = ELIC-α1^Q242LGABAAR (Homo sapiens, UniProt P14867, Q269L); conditions: Q242L; in the presence of 30 μM Epi-AlloP
Protocol: (§1) ELIC-α1GABAAR was expressed and purified according to a previously published protocol ([Q. Chen et al., 2018]). The purified protein was aliquoted and stored at −80°C. Mutagenesis was performed as described in previous reports ([Kinde et al., 2016]) by oligonucleotide-directed mutagenesis using Phu polymerase (Thermo Fisher Scientific, Waltham, MA, USA) verified by sequencing. ELIC-α1GABAAR was expressed in OverExpress™ C43(D3) E. coli, derived from Rosetta™(DE3) cells under double selection with kanamycin and chloramphenicol for ELIC-α1GABAAR.
(§2) One hundred microlitres of purified ELIC-α1GABAAR (0.3 μM in Buffer A + 0.015% DDM) was transferred into a 50-μl window quartz cuvette (Starna Cells, Atascadero, CA, USA), which was placed in a cuvette holder maintained at 4°C. The cuvette containing the protein sample remained in the cuvette holder for the duration of the experiment. Protein stability was ensured by comparing the intensities of emission spectra of ELIC-α1GABAAR at 330 nm before and after 30 min incubation, and the protein sample was discarded if the intensity decreased by more than 1%. Two microlitres of NaI (AK Scientific, Union City, CA, USA; 5-M stock prepared in 0.1-Mm sodium hydrosulfite [Sigma-Aldrich, St. Louis, MO, USA]) was added to the protein (final concentration = 100 mM) and incubated for 10 min to reduce the fluorescence emission from hydrophilic tryptophans. To measure the concentration–dependent effects of NS on tryptophan fluorescence, 1 μl of NS from each 100× stock solution was sequentially added to the NaI-equilibrated protein and thoroughly mixed to achieve concentrations from 0.01 to 50 μM. The protein-NS solution was incubated for 30 min after each addition. Following each incubation period, the emission spectrum of the protein-NS solution was acquired.

ELIC-α1^W246LGABAAR = ELIC-α1^W246LGABAAR (Homo sapiens, UniProt P14867, W273L)
Protocol: as §1, §2

## CC(=O)[C@H]1CC[C@H]2[C@@H]3CC[C@H]4C[C@H](O)CC[C@]4(C)[C@H]3CC[C@]12C [AlloP, allopregnanolone]
ELIC-α1GABAAR
  fold Ki (FRET assay) lower than Kd (quench assay): about 5 fold
ELIC-α1^Q242LGABAAR
  extent of quench: −17%
ELIC-α1^W246LGABAAR; W246L
  residual saturable quenching in W246L receptors: 29 ± 1%
ELIC-α1^W246LGABAAR; W246L vs WT
  reduction of AlloP quenching in W246L receptors: 66 ± 6%

Source: PMC11585924, “Direct measurements of neurosteroid binding to specific sites on GABAA receptors” (British journal of pharmacology, 2024)
